Results on four substances are retold here after PMC3153955.

What is called Km is the substrate concentration at which the rate is half of its maximum. What is called kcat is the number of substrate molecules converted per active site and unit of time at saturation.

This series deals with C[C@@H]1O[C@@H]1P(=O)(O)O. Put plainly: purified protein. Particulars: 1 mM ATP, 10 mM MgCl2, 100 mM KCl, pH 7.2, 25 °C.

On to “FomA (fosfomycin resistance kinase FomA) (Streptomyces wedmorensis; K9A)”, for which the Km was determined as 23.1 ± 3.1 µM and the kcat is 4.5 ± 0.3 s⁻¹.

For the substance “FomA (fosfomycin resistance kinase FomA) (Streptomyces wedmorensis; S149A)”, the Km worked out at 383.2 ± 45.3 µM and the kcat stood at 14.5 ± 2.2 s⁻¹.

Take “FomA (fosfomycin resistance kinase FomA) (Streptomyces wedmorensis; S148A)”: the Michaelis-Menten constant (Km) stood at 169.8 ± 22.2 µM and the turnover number (kcat) turned out to be 35.0 ± 2.6 s⁻¹.

Regarding “FomA (fosfomycin resistance kinase FomA) (Streptomyces wedmorensis; D208A)”, the Michaelis-Menten constant (Km) was 17.5 ± 2.5 µM and the turnover number (kcat) worked out at 11.9 ± 0.4 s⁻¹.
